The test system of this experiment is NB-4. In words: Antiproliferative activity against human NB4 cells expressing PML/RARalpha assessed as cell growth inhibition measured after 48 hrs by CCK-8 assay. (In general: Tetrazolium assays rely on reduction of a dye to a coloured formazan, in cell work by metabolically active cells.)

Turning to `Cl[As](Cl)Cl`, the IC50 (commonly the concentration needed to halve the response being measured) stood at 1.75 µM.

The values above are taken from ChEMBL document CHEMBL5375988, “AcGlcAs: A Novel P53-Targeting Arsenical with Potent Cellular Uptake and Cancer Cell Selectivity” (J Med Chem, 2023).
